Test results published in ChEMBL document CHEMBL5653608 (Br J Pharmacol, 2011).

Amino acid sequences for entries named in this document (tags omitted). A change or cut given only in a name is not applied to a line headed by its entry.
UniProt P43116: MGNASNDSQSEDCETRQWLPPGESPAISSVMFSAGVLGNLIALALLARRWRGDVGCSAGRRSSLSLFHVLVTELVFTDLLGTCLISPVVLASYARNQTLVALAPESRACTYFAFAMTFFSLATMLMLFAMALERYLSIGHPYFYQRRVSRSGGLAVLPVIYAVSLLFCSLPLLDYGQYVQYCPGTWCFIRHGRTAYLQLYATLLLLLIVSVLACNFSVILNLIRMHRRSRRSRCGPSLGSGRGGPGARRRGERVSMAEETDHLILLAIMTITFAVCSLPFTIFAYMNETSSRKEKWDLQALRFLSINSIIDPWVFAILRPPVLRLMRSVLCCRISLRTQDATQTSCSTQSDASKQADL

Target: Prostaglandin E2 receptor EP2 subtype (Homo sapiens, UniProt P43116)
Experiment: Antagonist activity at human EP2 receptor expressed in CHO cells assessed as increase in cAMP level incubated for 30 mins followed by agonist addition measured after 90 mins
Type: functional, cell-based

SMILES: CCCCC[C@H](O)/C=C/[C@H]1[C@H](O)CC(=O)[C@@H]1C/C=C\CCCC(=O)O [DINOPROSTONE]
- EC50: 13.8 nM
